Assay results reported in US20200009275A1, “PIGMENT-COUPLED MANNOSYL SERUM ALBUMIN COMPLEX AND LYMPH NODE-PROBING COMPOSITION COMPRISING SAME” (priority 2017, published 2020).

Amino acid sequences for entries named in this document (tags omitted). Residues count along the entry.
UniProt P02768, 25-609: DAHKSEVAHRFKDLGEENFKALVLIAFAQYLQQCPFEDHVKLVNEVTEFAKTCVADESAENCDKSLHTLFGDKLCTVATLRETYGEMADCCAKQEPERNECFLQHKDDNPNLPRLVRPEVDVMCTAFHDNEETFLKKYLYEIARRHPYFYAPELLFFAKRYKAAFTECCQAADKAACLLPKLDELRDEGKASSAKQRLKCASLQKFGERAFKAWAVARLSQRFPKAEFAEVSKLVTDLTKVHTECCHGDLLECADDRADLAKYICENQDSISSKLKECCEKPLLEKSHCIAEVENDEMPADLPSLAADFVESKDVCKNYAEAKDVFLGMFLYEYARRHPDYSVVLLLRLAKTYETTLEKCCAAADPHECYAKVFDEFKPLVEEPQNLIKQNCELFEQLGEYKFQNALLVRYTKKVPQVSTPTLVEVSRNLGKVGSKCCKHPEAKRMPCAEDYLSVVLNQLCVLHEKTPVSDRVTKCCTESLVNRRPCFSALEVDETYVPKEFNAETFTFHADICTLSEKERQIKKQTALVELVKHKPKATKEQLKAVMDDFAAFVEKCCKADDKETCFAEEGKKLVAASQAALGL

What was measured:
[1] = Absorption peak and molecular extinction coefficient of pigment-coupled MSA; format: physicochemical; conditions: for Wavelength (absorption peak): scan 350 nm to 850 nm
Experimental: The pigment-coupled MSA solution was loaded in a 96-well plate, which was scanned with visible light ranging between 350 nm and 850 nm to measure the absorbance at the peak of absorption spectrum using Varioskan Flash (Thermo Fisher Scientific Inc., Finland) spectrometer. The molecular extinction coefficient was measured by calculating the absorbance per 1 cm length according to Beer-Lambert law.

MSA = biological target: T1, MSA (Homo sapiens, UniProt P02768); test: TLC measurement of pigment not coupled to MSA; format: binding
T1 construct: purchased Green Cross Corp., Korea
Experimental: 2 ml of 200 mg/mL MSA was added thereto to prepare the reaction mixture in total volume of 3 mL. […]
Upon completion of the reaction, the amount of the pigment not coupled to MSA was measured by performing thin layer chromatography (TLC) with the pigment-coupled MSA hourly. At this time, methanol and methylene chloride (MeOH:MeCl2) mixture was used as a solvent and the results were quantitatively analyzed by multi-gauge 3.0 software using LAS3000 (Fuji Film).

[2] = test system: mouse popliteal lymph node; test: Lymph node probing effect of pigment and Tc-99m labeled MSA in an animal model; format: in vivo; conditions: mice
[3] = 35 μl subcutaneously into the soles, naked eye and SPECT/CT

## CCOc1ccc(Nc2ccc(/C(=C3C=C/C(=[N+](/CC)Cc4cccc(S(=O)(=O)[O-])c4)C=C/3C)c3ccc(N(CC)Cc4cccc(S(=O)(=O)[O-])c4)cc3C)cc2)cc1.[Na+] [BG, brilliant blue G]
[1]; at absorption peak, per 1 cm, Beer-Lambert law
  ε (molecular extinction coefficient): 61852
[1]
  Wavelength (absorption peak): 620 nm
MSA; 10 min
  Percentage of pigment not coupled to MSA: 0.0 ± 0.0%
MSA; 30 min
  Percentage of pigment not coupled to MSA: 0.0 ± 0.0%
MSA; 1 hr
  Percentage of pigment not coupled to MSA: 0.0 ± 0.0%
MSA; 2 hr
  Percentage of pigment not coupled to MSA: 0.0 ± 0.0%
MSA; 6 hr
  Percentage of pigment not coupled to MSA: 0.0 ± 0.0%
MSA; 24 hr
  Percentage of pigment not coupled to MSA: 0.0 ± 0.0%
MSA; Table 2
  Binding of pigment to MSA (in words): bind stably and strongly to MSA

## EB-coupled Tc-99m-MSA: Evans blue-coupled MSA mixed with Tc-99m labeled MSA, prepared in Example 4
[2]; [3]
  Time after administration at which pigment and radioactivity were condensed in the popliteal lymph node: 10 min
  Time for which condensation in the popliteal lymph node continued: 4 h
[2]; subcutaneous injection
  Lymph node probing effect (in words): effective agent for probing the lymph node

## patent blue VF [PBVF]
[1]
  Wavelength (absorption peak): 640 nm

## reactive blue 4 [RB4]
[1]
  Wavelength (absorption peak): 600 nm
